These are literature values, as cited in article PMC11856326, “Structure-activity studies of bispyridinium antinicotinics to select candidates to treat soman intoxication as part of a combined therapy” (2025).

Series [1] relates to Human acetylcholinesterase (hAChE). The following applies: read-out: hAChE IC50, cited from earlier work.
The next series relates to mice. The following applies: cited from earlier work; for LD50 i.m. mice: number in brackets = i.m.

Structures are written as SMILES. Where two headings read alike, the source gives them in different places. Marks after values point to notes of the source that are not given here.

In general, IC50 refers to the concentration needed to halve the response being measured. Regarding `CC(C)(C)c1cc[n+](CCC[n+]2ccc(C(C)(C)C)cc2)cc1`, the IC50 in series [1] (R = t-Bu series) is 404 µM. Moreover, the LD50 i.m. mice entry in the series with mice (R = t-Bu column) is given as “(167) ^c mg·kg^−1”.
For `c1cc[n+](CCCCC[n+]2ccccc2)cc1`, the 50% inhibitory concentration (IC50) in series [1] (R = H series) was 711 µM. Moreover, in the series on mice (R = H column (also common oximes)), the LD50 i.m. mice is 116 mg/kg. Also, in the series on mice (R = H column (also common oximes), bispyridinium dibromides), the LD50 i.v. mice was 32 mg/kg.
